# What was measured:
# Protein sequences, listed by entry. Tags and fused reporters are not part of them.
# UniProt P31652, whole entry: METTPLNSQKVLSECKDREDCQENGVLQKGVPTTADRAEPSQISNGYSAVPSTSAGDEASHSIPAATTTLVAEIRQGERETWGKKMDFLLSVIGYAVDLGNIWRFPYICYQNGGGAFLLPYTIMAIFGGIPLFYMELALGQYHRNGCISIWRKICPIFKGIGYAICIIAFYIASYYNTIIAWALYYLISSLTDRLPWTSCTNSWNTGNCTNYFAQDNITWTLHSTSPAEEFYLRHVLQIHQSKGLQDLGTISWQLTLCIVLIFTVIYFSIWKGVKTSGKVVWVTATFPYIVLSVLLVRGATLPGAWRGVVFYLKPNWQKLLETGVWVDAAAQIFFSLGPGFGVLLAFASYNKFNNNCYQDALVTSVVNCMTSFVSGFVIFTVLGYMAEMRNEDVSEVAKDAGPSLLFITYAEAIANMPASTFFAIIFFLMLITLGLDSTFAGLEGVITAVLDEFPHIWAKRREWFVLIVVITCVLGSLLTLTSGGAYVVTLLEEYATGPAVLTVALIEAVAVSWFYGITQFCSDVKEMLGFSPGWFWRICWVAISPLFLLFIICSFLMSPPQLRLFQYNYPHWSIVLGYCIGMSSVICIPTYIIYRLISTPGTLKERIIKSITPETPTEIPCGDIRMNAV
# UniProt Q9WTR4, whole entry: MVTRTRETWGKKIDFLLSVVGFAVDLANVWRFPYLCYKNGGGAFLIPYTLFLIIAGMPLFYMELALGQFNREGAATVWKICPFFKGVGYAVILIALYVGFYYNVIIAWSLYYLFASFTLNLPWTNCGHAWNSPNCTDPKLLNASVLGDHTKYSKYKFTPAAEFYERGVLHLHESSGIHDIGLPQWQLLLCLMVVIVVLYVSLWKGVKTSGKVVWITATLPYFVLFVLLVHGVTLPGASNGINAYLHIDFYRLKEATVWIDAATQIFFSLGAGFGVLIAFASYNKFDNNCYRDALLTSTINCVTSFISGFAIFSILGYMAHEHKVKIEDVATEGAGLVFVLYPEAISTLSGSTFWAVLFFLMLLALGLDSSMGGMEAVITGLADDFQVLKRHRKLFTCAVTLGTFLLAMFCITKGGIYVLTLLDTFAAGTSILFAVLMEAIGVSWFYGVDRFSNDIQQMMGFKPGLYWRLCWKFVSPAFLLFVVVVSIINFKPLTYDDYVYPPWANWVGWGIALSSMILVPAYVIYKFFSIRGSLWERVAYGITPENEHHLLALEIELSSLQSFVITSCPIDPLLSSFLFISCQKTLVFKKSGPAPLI
# [1] = biological target: Sodium-dependent serotonin transporter (Rattus norvegicus, UniProt P31652); assay: Binding affinity against Serotonin transporter in male Sprague-Dawley rats using [3H]paroxetine ligand
# Summary of the method: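 Male Sprague-Dawley rat midbrain membranes in 50 mM Tris, 120 mM NaCl, 5 mM KCl, pH 7.4; 1.5 mg original wet tissue per tube. Incubation with 0.2 nM [3H]paroxetine for 90 min at room temperature. Nonspecific binding with 1 μM citalopram. Filtration and scintillation counting; Ki from at least three experiments in triplicate.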
# [2] = biological target: Norepinephrine transporter (Rattus norvegicus, UniProt Q9WTR4); assay: The compound was tested for binding affinity nisoxatine ligand
# Summary of the method: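 Male Sprague-Dawley rat frontal cortex membranes in 50 mM Tris, 120 mM NaCl, 5 mM KCl, pH 7.4; 8 mg original wet tissue per tube. Incubation with 0.5 nM [3H]nisoxetine for 60 min at 0-4 °C. Nonspecific binding with 1 μM desipramine. Filtration and scintillation counting; Ki from at least three experiments in triplicate.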
Structure (SMILES),Ki [1] [nM],Ki [2] [nM]
COC(=O)[C@H]1[C@@H](OC(=O)c2ccccc2)C[C@@H]2CC[C@H]1N2C [COCAINE],172,–
Fc1ccc(C(OCCN2CCN(CCCc3ccccc3)CC2)c2ccc(F)cc2)cc1 [VANOXERINE],24.1,1270

# — ChEMBL document CHEMBL1132454 (J Med Chem, 1999)
